According to article PMC12064818, “A general assay platform to study protein pharmacology using ligand-dependent structural dynamics” (Nature Communications, 2025):

Tests used:
[1] = target: T1, PKA-N-HiBiT (Homo sapiens, UniProt P17612); assay: biochemical
[2] = target: T1, PKA-N-HiBiT; assay: PKA peptide phosphorylation, Kinase-Glo Plus (KGP) assay, PKA-N-HiBiT
[3] = target: T2, DHFR-C-HiBiT (Homo sapiens, UniProt P00374); assay: Dihydrofolate reductase enzymatic absorbance assay
T2 sequence (P00374 2-187): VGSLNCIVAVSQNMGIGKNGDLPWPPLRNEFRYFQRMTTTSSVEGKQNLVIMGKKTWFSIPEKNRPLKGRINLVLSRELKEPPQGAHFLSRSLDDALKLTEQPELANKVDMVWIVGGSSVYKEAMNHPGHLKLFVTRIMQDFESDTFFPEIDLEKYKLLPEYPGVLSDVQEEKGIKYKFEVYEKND

[4] = target: T2, DHFR-C-HiBiT; assay: biochemical
[5] = target: T3, endogenous DHFR-C-HiBiT in HEK293 cell lysate (Homo sapiens, UniProt P00374); assay: SDR assay, cellular lysate from DHFR C-terminus HiBiT gene edited HEK293 cells; conditions: pSDR50 (lysate), Mean, 1:100 lysate (~0.2 nM) without added NADPH
T3 sequence (P00374 1-187): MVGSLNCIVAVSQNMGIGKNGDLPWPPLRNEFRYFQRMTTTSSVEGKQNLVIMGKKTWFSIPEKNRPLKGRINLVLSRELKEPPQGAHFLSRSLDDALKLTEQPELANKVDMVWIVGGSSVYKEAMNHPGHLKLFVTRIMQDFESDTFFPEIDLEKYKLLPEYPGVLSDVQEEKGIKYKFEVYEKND

Compound	EC50 [1] [µM]	IC50 [2] [µM]	IC50 [3] [µM]	EC50 [4] [µM]	EC50 [5] [µM]
Cc1[nH]c(/C=C2\C(=O)Nc3ccc(S(=O)(=O)Cc4c(Cl)cccc4Cl)cc32)c(C)c1C(=O)N1CCC[C@@H]1CN1CCCC1 [PHA-665752]	47.9	–	–	–	–
CCN1CCN(Cc2ccc(NC(=O)Nc3ccc(Oc4cc(NC)ncn4)cc3)cc2C(F)(F)F)CC1 [AST-487]	19.1	112	–	–	–
Nc1nc2[nH]cc(CCc3ccc(C(=O)N[C@@H](CCC(=O)O)C(=O)O)cc3)c2c(=O)[nH]1 [pemetrexed]	–	–	10	4.27	0.794
